Data on 1 compound can be found in ChEMBL document CHEMBL4304752, “Synthesis and Molecular Properties of Nerve Agent Reactivator HLö-7 Dimethanesulfonate” (2019).

Data set [1] can be described thus: Solubility of compound in water. The following applies: buffer.
Data set [2] is described as follows: Half life at physiological pH and temperature.

Broadly, the solubility is the dissolved amount per volume that the medium holds. Low values mean little dissolved substance, high ones much dissolved substance.

`NC(=O)c1cc[n+](COC[n+]2ccc(/C=N/O)cc2/C=N/O)cc1.[I-].[I-]` yielded a solubility in data set [1] of 20 mg/mL. In data set [2], the t1/2 amounted to 12 h.
